AlphaSeq binding of Ab-95 light chain variants to a spike HR2 peptide

Data: MIT Lincoln Laboratory AlphaSeq set, Engelhart et al. 2022, doi:10.1038/s41597-022-01779-4, as distributed in FLAb.

Binding partner: SARS-CoV-2 spike HR2 peptide, sequence PDVDLGDISGINAS.

Parent scFv Ab-95: VH joined to VL by three GGGGS repeats. Changes lie in the light chain CDRs alone.
VH: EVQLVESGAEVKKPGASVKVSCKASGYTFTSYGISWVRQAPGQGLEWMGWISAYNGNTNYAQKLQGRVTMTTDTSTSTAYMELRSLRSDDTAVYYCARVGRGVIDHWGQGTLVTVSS
VL: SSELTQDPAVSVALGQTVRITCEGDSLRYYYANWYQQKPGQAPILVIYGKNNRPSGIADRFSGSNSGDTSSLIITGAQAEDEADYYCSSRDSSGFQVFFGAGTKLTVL

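The starting antibody came from a phage panning campaign against this peptide. Library AAYL52 holds single substitutions and randomly drawn double and triple substitutions in the CDRs. The assay is AlphaSeq: two haploid yeast populations carry antibody and antigen on their surface. Mating (16 h, 30 °C) was followed by selection of diploids and sequencing of their barcodes. Read counts were normalised to the haploid input and turned into Kd by a linear fit to BCL2-family pairs of known affinity, for each replicate. The assay was run in three technical replicates.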

Substitutions are numbered in sequence along the VL above, starting at 1 (not Kabat).
The Kd shown is the geometric mean over detected replicates; a lower Kd is a better binder.
A pair that was not seen in any replicate is written "nd"; this usually means weak binding, but a binder can also be missed.
The list is sorted by this average, lowest first, undetected variants last.
Parent in this assay: reference entry 200 nM, copy in this library 180 nM.
Nonspecific signal, from three strains lacking the peptide, appeared in 28% of pairings of library AAYL52, centred on 8.2 µM (5% of these signals below 800 nM); values are not corrected for it.

| changes | Kd | detected |
|---|---|---|
| Y31P+V97L | 21 nM | 3/3 |
| Y29A+Q96E+F98C | 43 nM | 3/3 |
| R28N+Y31M+Q96H | 71 nM | 3/3 |
| Y31M+S93K+Q96M | 73 nM | 3/3 |
| Y30C+Y31L+Q96W | 110 nM | 3/3 |
| S88Q+S92K+Q96I | 180 nM | 3/3 |
| E23M+N52D+S89I | 180 nM | 3/3 |
| E23T+K50G+Q96W | 190 nM | 3/3 |
| D25K+S92C | 200 nM | 3/3 |
| L27R+Y31P+S89P | 220 nM | 1/3 |
| A32V+S55W | 250 nM | 2/3 |
| R28V+Y30L+Y31E | 410 nM | 3/3 |
| G24R+S89F+S92D | 480 nM | 1/3 |
| Y29W+K50Q+Q96P | 550 nM | 3/3 |
| S55R+S88N | 550 nM | 3/3 |
| R90T+S92Q+F98K | 720 nM | 3/3 |
| R28D+R90A+Q96A | 1.1 µM | 3/3 |
| P54I+S89M+V97D | 1.1 µM | 2/3 |
| S26N+A32N+N33P | 1.2 µM | 1/3 |
| Y30W+N51P+N52V | 1.4 µM | 1/3 |
| G49A+D91R | 1.5 µM | 3/3 |
| N33S+P54N+S88G | 1.5 µM | 2/3 |
| S26A+L27M+N51A | 1.5 µM | 2/3 |
| S26R+Y30P+N33Q | 1.9 µM | 3/3 |
| G24R+Y30V+P54H | 2.4 µM | 1/3 |
| Y31L+A32V+Q96G | 3.8 µM | 3/3 |
| E23D+L27M+N51T | 4.3 µM | 3/3 |
| E23Y+N33D+R53E | 4.5 µM | 3/3 |

Second part, the sequence after the result:

| Kd | detected | changes |
|---|---|---|
| 6.5 µM | 2/3 | D25T+S89Y+G94I |
| 6.7 µM | 1/3 | E23P+N33S+S88Y |
| 6.7 µM | 1/3 | G49I+N51P+R90Y |
| 7.0 µM | 3/3 | G24V+A32P+V97Y |
| 7.0 µM | 2/3 | G24E+L27D+S55Q |
| 8.1 µM | 1/3 | A32Y+R90E+V97R |
| 8.2 µM | 2/3 | E23N+R28E+N33Y |
| 12 µM | 1/3 | R28N+F95M+V97E |
| 13 µM | 1/3 | L27P+N51H+R53V |
| 13 µM | 2/3 | G24T+D25W+G94C |
| 13 µM | 1/3 | S26V+P54Q+S89E |
| 14 µM | 2/3 | S89N+D91I+Q96W |
| 14 µM | 3/3 | Y31Q+A32Q+S93G |
| 17 µM | 2/3 | G24P+D91W+F98D |
| 22 µM | 2/3 | R28H+F95W+V97N |
| 33 µM | 3/3 | F95A+F98I |
| 35 µM | 2/3 | N33S+R53D+S88I |
| 56 µM | 1/3 | G24Y+L27F+S88Y |
| 61 µM | 2/3 | Y29A+K50C+R53L |
| 110 µM | 1/3 | Y30D+N33F+S89E |
| 190 µM | 1/3 | D25M+L27P+V97S |
| nd | 0/3 | R28V+R53E+F98M |
| nd | 0/3 | E23W+Y29D+N33L |
| nd | 0/3 | N52G+D91N+S93W |
| nd | 0/3 | S55E+G94L |
| nd | 0/3 | S55K+S88N+S89Q |
| nd | 0/3 | R28G+R53K+R90E |
| nd | 0/3 | R28E+N51I+R90A |

Picked from the list: the 7 lowest averages where every replicate gave a value.

| changes | Kd | detected |
|---|---|---|
| Y31P+V97L | 21 nM | 3/3 |
| Y29A+Q96E+F98C | 43 nM | 3/3 |
| R28N+Y31M+Q96H | 71 nM | 3/3 |
| Y31M+S93K+Q96M | 73 nM | 3/3 |
| Y30C+Y31L+Q96W | 110 nM | 3/3 |
| S88Q+S92K+Q96I | 180 nM | 3/3 |
| E23M+N52D+S89I | 180 nM | 3/3 |